The experiment concerns the target ASP1 (actinobacteria-specific protein 1; SCO1997) from Streptomyces coelicolor A3(2) (Streptomyces coelicolor A3(2)) (UniProt Q9S2K6). Briefly: SEC; S200 size exclusion column, full length ASP1 at 5 mg/mL, 20 mM Tris pH 7.4, 200 mM KCl; single peak at 13.8 mL, calibrated with a standard curve. On the technique in general: In gel filtration, larger molecules generally elute earlier.

The term stoichiometry N denotes a count of units in the complex or per binding partner.

As for “ASP1 (actinobacteria-specific protein 1; SCO1997) from Streptomyces coelicolor A3(2) (from UniProt Q9S2K6 1-312) (natural protein)”, the stoichiometry N is 3.

Values taken from paper PMC2714318.
